Key:
[1] = system: goats in persistent atrial fibrillation; assay: Efficiency of cardioversion in up to eight goats with persistent atrial fibrillation; type: in vivo; details: monotherapy, +ibutilide 2 mg/kg or +dofetilide 10 μg/kg
[2] = target: Kv1.5 channels from humans (Homo sapiens, UniProt P22460); assay: cell-based
Procedure: Kv1.5 channels from humans were expressed in Xenopus oocytes. […] RNA encoding Kv1.5 synthesized in vitro was then injected into these oocytes. […] The Kv1.5 channels were in this case as a rule activated using voltage jumps to 0 mV and 40 mV lasting 500 ms. […] These experiments were carried out at room temperature.

Sequences of proteins named here, by UniProt entry; tags and fusion partners are left off.
UniProt P22460, whole entry: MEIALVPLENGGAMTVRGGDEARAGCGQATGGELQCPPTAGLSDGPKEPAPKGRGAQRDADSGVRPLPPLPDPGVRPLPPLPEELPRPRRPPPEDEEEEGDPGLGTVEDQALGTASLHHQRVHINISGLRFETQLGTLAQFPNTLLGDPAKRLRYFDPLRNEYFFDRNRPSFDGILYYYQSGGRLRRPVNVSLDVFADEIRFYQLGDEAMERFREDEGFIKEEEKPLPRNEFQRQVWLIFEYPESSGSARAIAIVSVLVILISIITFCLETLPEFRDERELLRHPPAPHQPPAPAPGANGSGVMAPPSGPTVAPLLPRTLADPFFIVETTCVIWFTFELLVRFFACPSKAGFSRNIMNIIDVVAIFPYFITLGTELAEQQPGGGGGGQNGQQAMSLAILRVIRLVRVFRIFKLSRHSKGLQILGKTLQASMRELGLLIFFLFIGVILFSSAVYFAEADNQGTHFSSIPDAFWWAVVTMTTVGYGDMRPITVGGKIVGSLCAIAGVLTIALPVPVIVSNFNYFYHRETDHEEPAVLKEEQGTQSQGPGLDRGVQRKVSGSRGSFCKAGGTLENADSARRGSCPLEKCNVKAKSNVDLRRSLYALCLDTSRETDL

SMILES | Efficiency of cardioversion ([1]; example 1 0.1 mg/kg) [%] | ratio of goats where cardioversion occurred to goats used ([1]; example 1 0.1 mg/kg) | Efficiency of cardioversion ([1]; example 1 0.3 mg/kg) [%] | ratio of goats where cardioversion occurred to goats used ([1]; example 1 0.3 mg/kg) | Efficiency of cardioversion ([1]; example 1 1 mg/kg) [%] | ratio of goats where cardioversion occurred to goats used ([1]; example 1 1 mg/kg) | Efficiency of cardioversion ([1]; example 1 3 mg/kg) [%] | ratio of goats where cardioversion occurred to goats used ([1]; example 1 3 mg/kg, listed as Compound of example 1) | ratio of goats where cardioversion occurred to goats used ([1]; example 1 3 mg/kg, listed as compound of example 1) | Efficiency of cardioversion ([1]; example 1 10 mg/kg) [%] | ratio of goats where cardioversion occurred to goats used ([1]; example 1 10 mg/kg) | IC50 [2] [nM]
COc1ccc(CC(=O)NCc2ccccc2-c2ccccc2C(=O)NCCc2cccnc2)cc1 [Example 1, 2′-{[2-(4-Methoxyphenyl)acetylamino]methyl}biphenyl-2-carboxylic acid (2-pyridin-3-ylethyl)amide] | 17 | (1/6) | 17 | (1/6) | 13 | (1/8) | 38 | (3/8) | 3 of 8 | 63 | (5/8) | 
CC[C@H](NC(=O)c1cc(F)ccc1NS(=O)(=O)c1cccc2cccnc12)c1ccccc1 [Example 7, (S)-5-Fluoro-2-(quinoline-8-sulfonylamino)-N-(1-phenyl-propyl)benzamide] |  |  |  |  |  |  |  |  |  |  |  | 1100
CCCCS(=O)(=O)Nc1ccc(C)cc1C(=O)NC(c1cccnc1)C1CC1 (stereo not shown) [Example 6, 2-(Butyl-1-sulfonylamino)-N-(cyclopropylpyridin-3-ylmethyl)-5-methylbenzamide] |  |  |  |  |  |  |  |  |  |  |  | 1000

Source: US8106099B2, “Combination of phenylcarboxamides with blockers of the IKr channel and their use for the treatment of atrial arrhythmias” (Sanofi-Aventis Deutschland GmbH, priority 2003, dated 2012)
